Experimental data reported in patent publication US7259266B2, “Benzopyran compounds useful for treating inflammatory conditions” (Pharmacia Corporation, priority 2003, dated 2007).

Protein sequences, listed by entry. Tags and fused reporters are not part of them. Residues count along the entry.
UniProt P35354, 18-604 limits assumed: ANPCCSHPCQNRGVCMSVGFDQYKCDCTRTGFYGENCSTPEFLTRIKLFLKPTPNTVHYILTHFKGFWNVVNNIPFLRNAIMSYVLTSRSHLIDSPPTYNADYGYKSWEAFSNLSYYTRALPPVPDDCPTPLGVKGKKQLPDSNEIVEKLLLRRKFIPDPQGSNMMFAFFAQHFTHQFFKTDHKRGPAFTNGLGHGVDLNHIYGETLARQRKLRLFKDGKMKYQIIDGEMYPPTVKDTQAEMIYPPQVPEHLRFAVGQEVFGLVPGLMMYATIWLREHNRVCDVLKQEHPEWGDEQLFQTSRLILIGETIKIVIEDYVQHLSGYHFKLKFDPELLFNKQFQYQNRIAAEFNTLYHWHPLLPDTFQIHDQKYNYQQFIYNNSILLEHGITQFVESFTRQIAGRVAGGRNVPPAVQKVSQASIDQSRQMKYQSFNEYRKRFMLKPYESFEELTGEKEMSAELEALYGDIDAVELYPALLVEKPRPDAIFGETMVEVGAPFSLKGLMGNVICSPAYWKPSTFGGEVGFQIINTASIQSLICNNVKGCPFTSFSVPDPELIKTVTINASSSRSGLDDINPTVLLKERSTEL
UniProt P23219, 24-599 limits assumed: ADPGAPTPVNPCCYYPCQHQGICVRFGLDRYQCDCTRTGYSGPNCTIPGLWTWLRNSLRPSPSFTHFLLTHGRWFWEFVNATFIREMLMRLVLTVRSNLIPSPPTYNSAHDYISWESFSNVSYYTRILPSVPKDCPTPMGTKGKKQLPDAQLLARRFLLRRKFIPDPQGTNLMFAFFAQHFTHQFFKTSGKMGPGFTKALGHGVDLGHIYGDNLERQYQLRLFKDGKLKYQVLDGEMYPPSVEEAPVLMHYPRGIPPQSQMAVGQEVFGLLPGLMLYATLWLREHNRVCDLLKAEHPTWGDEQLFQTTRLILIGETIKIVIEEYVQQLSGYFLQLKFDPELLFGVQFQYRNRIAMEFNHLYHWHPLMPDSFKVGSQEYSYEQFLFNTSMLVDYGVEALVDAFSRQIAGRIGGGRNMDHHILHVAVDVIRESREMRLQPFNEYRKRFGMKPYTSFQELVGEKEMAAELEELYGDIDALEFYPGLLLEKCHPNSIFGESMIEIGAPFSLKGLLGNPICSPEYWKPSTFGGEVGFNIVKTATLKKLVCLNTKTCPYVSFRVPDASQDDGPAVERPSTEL

How the values were obtained:
COX-2 [1] = target: T1, COX-2 (Homo sapiens, UniProt P35354); test: Modified assay for COX-2 activity (PGE2 formed, ELISA); type: biochemical, human or murine
COX-1 [2] = target: T2, COX-1 (Homo sapiens, UniProt P23219); test: Modified assay for COX-1 activity (PGE2 formed, ELISA); details: read-out: hCox-1 Modified IC50, pre-incubated 10 minutes at 25° C., reaction stopped after two minutes, pH 7.5
COX-1 [3] = target: T2, COX-1; test: Assay for COX-1 activity (PGE2 formed, ELISA); details: read-out: hCox-1 IC50
COX-2 [4] = target: T1, COX-2; test: Assay for COX-2 activity (PGE2 formed, ELISA); type: biochemical, human or murine; details: read-out: hCox-2 IC50
[5] = read-out: hCox-2 Modified IC50, pre-incubated 10 minutes at 25° C., reaction stopped after two minutes, pH 7.5
[6] = recombinant hCox-1, compounds pre-incubated 10-20 minutes, reaction stopped after ten minutes, pH 8.0
[7] = recombinant hCox-2, compounds pre-incubated 10-20 minutes, reaction stopped after ten minutes, pH 8.0
[8] = read-out: hCox-2 Modified IC50, human COX-2

Compound | IC50 (COX-2 [1]; [5]) [µM] | IC50 (COX-1 [2]) [µM] | IC50 (COX-1 [3]; [6]) [µM] | IC50 (COX-2 [4]; [7]) [µM] | IC50 (COX-2 [1]; [8]) [µM] | IC50 (COX-1 [3]; human COX-1, standard assay) | IC50 (COX-2 [4]; human COX-2, standard assay)
O=C(O)C1=Cc2cc(Cl)cc(C#Cc3ccc(Br)cc3F)c2OC1C(F)(F)F (stereo not shown) | 5 | 12.2 | 26.3 | 28.3 |  |  | 
Cc1cc(I)ccc1Oc1cc2c(cc1Cl)C=C(C(=O)O)C(C(F)(F)F)O2 (stereo not shown) |  |  |  |  | < 0.137 | 2.1 µM | < 0.137 µM
O=Cc1ccc(Oc2cc3c(cc2Cl)C=C(C(=O)O)C(C(F)(F)F)O3)c(Br)c1 (stereo not shown) |  |  |  |  |  | 24.8 µM and 45.6 µM | ≤ 0.137 µM and 0.0873 µM

Second part, the compound after the results:

IC50 (COX-2 [1]; [5]) [µM] | IC50 (COX-1 [2]) [µM] | IC50 (COX-1 [3]; [6]) [µM] | IC50 (COX-2 [4]; [7]) [µM] | IC50 (COX-2 [1]; [8]) [µM] | IC50 (COX-1 [3]; human COX-1, standard assay) | IC50 (COX-2 [4]; human COX-2, standard assay) | Compound
0.0185 | 1.21 | 4.17 | 0.454 |  |  |  | Cc1c(Cl)ccc(Oc2cc3c(cc2Cl)C=C(C(=O)O)C(C(F)(F)F)O3)c1Cl (stereo not shown)
 |  |  |  | 1.64 | > 100 µM | > 100 µM | O=C(O)C1=Cc2cc(Cl)c(Oc3ccc(-c4ccc(Cl)cc4)cc3)cc2OC1C(F)(F)F (stereo not shown)
 |  |  |  | 0.22 | 21.8 µM | 4.49 µM | O=C(O)C1=Cc2cc(Cl)c(Oc3ccc(-c4ccccc4)cc3Cl)cc2OC1C(F)(F)F (stereo not shown)

Values joined by “and” are separate entries in the source; they are usually repeats but may differ in a detail not shown here. Equal entries are not always repeated.
